From article PMC12254266

Chains of the proteins cited; added tags and fusions are not shown.
UniProt O14842, whole entry: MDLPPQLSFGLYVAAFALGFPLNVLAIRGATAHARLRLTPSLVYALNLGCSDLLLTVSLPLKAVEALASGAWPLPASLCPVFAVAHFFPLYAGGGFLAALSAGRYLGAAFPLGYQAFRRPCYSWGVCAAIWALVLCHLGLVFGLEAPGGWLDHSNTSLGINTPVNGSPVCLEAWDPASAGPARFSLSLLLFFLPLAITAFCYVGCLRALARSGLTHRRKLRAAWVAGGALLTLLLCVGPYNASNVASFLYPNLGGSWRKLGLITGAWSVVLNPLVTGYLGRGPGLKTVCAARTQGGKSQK

Columns and labels:
[1] = target: Nluc-FFA1 (Homo sapiens, UniProt O14842); experiment: NanoBRET binding
[2] = target: T1, FFA1-Nluc (Homo sapiens, UniProt O14842); experiment: DISCo-BRET; format: binding
[3] = target: T1, FFA1-Nluc; experiment: Ca2+ mobilisation antagonism of FFA1 agonists; format: cell-based; details: in words

## CCCN1C(=O)c2ccccc2[C@@H](C(=O)O)[C@@H]1c1ccc(Oc2ccccc2)cc1 (relative stereo)
[1]; percentage of binding in the absence of competing ligand, tracer TUG-2884 2 μM
  'bottom' of the IC50 curve fit, Nano-BRET TUG-2884: -15%
[1]; tracer TUG-2884 2 μM, NBD/Nluc, NC = No competition
  pIC50 Nano-BRET TUG-2884: 5.8±0.06
[1]; using Kd TUG-2884 940 nM
  pKi Nano-BRET TUG-2884: 6.3±0.06
[2]; 100 nM TUG-2591 and 316 nM TUG-2597, NC = No competition
  pIC50 DISCo-BRET NBD/Nluc: 6.2±0.2
[2]; 100 nM TUG-2591 and 316 nM TUG-2597, one site model, NC = No competition
  pIC50 DISCo-BRET SulfoCy5/NBD: 6.0±0.1
[2]; percentage of binding obtained in the absence of competing ligand
  'bottom' of the IC50 curve, DISCo-BRET NBD/Nluc: 3.8%
[2]; using Kd TUG-2591 57 nM
  pKi DISCo-BRET SulfoCy5/NBD: 6.4±0.1
[3]
  antagonism of site one agonist (TUG-905) Ca2+ response: only competitive with site one
